Data reported in patent US8546419B2, “Dual phase drug release system” (priority 2003, dated 2013).

Key:
[1] = Method: The resultant suspension was diluted to 150 ml and extracted with methylene chloride (3×150 ml). Methylene chloride layers were combined, washed with 0.01 N HCl, and dried over magnesium sulfate. Solvent was removed in vacuum.
[2] = Hydrolytic stability and CPT release in aqueous media / phosphate buffered saline (RP HPLC); type: physicochemical; settings: PBS at pH 7.47/37° C.; first phase release
Method: The second stage hydrolysis of CPT-SI was investigated analogously.
Using procedures analogous to the described above, CPT release from these conjugates was investigated in phosphate buffered saline as described above. The conjugates were also tested for cytotoxicity in HT29 cell culture.

[3] = buffer, pH 7.4
Method: PHF-SAG-Taxol conjugate synthesis was carried out on a 2-gram scale, at ambient temperature, pH 5.5-6.0. […] The PHF-SAG-Taxol was purified of low molecular weight impurities by gel filtration on G25 Sefadex column equilibrated with DI water, and recovered by lyophilyzation. […] Stability of PHF-Taxol conjugates in aqueous media was monitored by HPLC.

Row | Substance | solubility (in words) [1] | CPT half-release time [2] [h] | half-life of ester hydrolysis to Taxol [3]
1 | (2-Nonen-1-yl)-succinic Acid-Linked PHF-CPT [PHF-NSA-CPT] | soluble in water and polar organic solvents | 16.0 | –
2 | Methylsuccinic Acid-Linked PHF-CPT [PHF-MSA-CPT] | – | 1.4 | –
3 | Taxol-2′(O)-(succinimidoglycine) | – | – | approximately 3 hours
